Earlier results, collected in patent publication US20100022574A1, “Methods to Treat Pain Using an Alpha-2 Adrenergic Agonist and an Endothelin Antagonist” (EndogenX, Inc., priority 2008, published 2010).

Chains of the proteins cited; added tags and fusions are not shown. Lines headed by an entry give the natural chain unless they say otherwise; changes in a name come on top.
UniProt P41145: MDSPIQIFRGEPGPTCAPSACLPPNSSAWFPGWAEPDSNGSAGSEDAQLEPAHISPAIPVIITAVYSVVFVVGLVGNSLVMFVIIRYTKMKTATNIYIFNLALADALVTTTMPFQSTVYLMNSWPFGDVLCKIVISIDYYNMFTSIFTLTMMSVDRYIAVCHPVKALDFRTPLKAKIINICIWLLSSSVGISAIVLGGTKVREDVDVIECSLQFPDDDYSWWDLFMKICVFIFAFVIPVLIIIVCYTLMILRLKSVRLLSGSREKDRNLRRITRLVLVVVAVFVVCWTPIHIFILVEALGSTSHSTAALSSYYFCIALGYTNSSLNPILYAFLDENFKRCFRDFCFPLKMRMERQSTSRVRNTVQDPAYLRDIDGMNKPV

What was measured:
[1] = administered orally; cited from earlier work
[2] = molecular target: K-opioid receptors (Homo sapiens, UniProt P41145); conditions: read-out: Ki for K-opioid receptors; cited from earlier work

Compound: 4-amino-N-(3,4-dimethyloxazol-5-yl)-benzenesulfonamide [Sulfisoxazole]
- absorption and excretion [1]: rapidly absorbed and rapidly excreted

Compound: COc1ccc2c3c1O[C@H]1C(=O)CC[C@@]4(O)[C@@H](C2)N(C)CC[C@]314.Cl [Oxycodone, 4,5α-epoxy-14-hydroxy-3-methoxy-17-methylmorphinan-6-one hydrochloride]
- Ki [2]: 677 nM
